From patent US10696655B2, “Therapeutic compounds and uses thereof” (GENENTECH, INC., priority 2017, dated 2020)

By UniProt entry, the sequences of proteins in these tests, tags left out.
UniProt Q92793, whole entry: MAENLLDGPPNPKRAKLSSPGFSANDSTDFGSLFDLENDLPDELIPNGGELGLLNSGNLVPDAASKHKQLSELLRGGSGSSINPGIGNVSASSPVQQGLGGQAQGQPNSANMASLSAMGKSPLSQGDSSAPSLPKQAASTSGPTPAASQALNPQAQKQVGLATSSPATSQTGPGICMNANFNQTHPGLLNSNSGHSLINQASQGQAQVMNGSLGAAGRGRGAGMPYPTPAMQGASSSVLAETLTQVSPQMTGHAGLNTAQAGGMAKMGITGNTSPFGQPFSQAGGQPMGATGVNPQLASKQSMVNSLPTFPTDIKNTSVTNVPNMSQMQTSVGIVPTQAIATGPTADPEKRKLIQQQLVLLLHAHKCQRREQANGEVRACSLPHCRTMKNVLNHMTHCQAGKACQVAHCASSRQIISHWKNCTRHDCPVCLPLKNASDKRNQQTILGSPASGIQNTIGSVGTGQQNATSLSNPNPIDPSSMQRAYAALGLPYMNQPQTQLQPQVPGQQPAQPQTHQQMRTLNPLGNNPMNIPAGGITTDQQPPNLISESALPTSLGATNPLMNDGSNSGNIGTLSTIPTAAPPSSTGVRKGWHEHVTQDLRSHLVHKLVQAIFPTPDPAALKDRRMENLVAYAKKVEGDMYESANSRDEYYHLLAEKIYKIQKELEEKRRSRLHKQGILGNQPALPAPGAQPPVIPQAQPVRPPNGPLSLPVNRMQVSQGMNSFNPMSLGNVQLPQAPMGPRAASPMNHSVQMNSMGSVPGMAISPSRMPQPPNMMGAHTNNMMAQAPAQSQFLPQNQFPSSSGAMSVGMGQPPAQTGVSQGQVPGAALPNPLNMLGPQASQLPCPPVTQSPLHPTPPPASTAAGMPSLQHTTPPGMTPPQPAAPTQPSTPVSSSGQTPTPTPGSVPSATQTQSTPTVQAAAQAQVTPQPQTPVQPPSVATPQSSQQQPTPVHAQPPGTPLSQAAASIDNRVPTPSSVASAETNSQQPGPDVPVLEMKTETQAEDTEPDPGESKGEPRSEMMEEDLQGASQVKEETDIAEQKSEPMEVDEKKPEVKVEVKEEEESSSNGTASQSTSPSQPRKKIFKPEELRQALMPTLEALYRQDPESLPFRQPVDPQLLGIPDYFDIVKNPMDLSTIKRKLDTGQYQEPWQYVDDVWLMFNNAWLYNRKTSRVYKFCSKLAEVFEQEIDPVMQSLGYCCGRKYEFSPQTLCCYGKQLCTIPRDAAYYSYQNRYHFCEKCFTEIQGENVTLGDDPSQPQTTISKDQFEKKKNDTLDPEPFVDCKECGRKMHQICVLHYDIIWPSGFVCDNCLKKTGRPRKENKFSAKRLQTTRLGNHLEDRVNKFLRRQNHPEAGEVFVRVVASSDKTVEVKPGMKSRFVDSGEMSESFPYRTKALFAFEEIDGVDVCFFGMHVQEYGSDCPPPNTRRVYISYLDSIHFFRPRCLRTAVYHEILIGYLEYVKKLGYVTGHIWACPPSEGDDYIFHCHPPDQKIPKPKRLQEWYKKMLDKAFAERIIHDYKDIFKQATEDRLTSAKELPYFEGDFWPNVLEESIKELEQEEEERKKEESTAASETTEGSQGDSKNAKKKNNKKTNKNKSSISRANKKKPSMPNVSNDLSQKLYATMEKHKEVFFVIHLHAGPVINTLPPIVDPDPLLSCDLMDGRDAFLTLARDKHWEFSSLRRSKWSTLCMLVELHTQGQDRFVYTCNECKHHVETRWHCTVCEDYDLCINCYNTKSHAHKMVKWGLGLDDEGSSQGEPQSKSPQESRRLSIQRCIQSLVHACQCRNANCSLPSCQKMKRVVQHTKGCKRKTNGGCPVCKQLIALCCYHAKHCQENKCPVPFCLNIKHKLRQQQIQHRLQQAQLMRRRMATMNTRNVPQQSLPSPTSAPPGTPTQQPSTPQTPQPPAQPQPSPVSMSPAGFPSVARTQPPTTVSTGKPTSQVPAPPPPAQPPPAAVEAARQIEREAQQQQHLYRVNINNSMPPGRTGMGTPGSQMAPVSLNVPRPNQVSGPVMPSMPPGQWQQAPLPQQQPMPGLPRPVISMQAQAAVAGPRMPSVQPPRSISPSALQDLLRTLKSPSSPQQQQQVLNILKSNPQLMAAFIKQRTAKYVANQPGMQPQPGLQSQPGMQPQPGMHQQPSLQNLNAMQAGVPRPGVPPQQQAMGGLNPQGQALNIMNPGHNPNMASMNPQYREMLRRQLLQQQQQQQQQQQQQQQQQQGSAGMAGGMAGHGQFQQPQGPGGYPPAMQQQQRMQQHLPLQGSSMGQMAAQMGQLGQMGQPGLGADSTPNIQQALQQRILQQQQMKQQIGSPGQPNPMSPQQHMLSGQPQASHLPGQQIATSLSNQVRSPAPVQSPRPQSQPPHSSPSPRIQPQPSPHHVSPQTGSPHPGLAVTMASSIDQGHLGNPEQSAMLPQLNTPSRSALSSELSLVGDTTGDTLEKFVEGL

Molecular target: CBP (Homo sapiens (Human), UniProt Q92793)
Test: CBP TR-FRET binding assay;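 also: displacement of a biotinylated small-molecule ligand from purified recombinant CBP read by TR-FRET, DMSO-only wells as control, IC50 from nonlinear curve fit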
Conditions: His/Flag tagged CBP 4 nM, biotin-ligand 60 nM; read-out: CBP HTRF IC50

Structure (SMILES): C[C@@H]1Nc2c(cccc2N2CCCc3cc(-c4cnn(C)c4)c(C(F)F)cc32)NC1=O [Example 80, (S)-5-(7-(difluoromethyl)-6-(1-methyl-1H-pyrazol-4-yl)-3,4-dihydroquinolin-1(2H)-yl)-3-methyl-3,4-dihydroquinoxalin-2(1H)-one]
- IC50: 206 nM

Structure (SMILES): C[C@H]1Nc2c(cccc2N2CCCc3cc(-c4cnn(C)c4)c(C(F)F)cc32)NC1=O [Example 81, (R)-5-(7-(difluoromethyl)-6-(1-methyl-1H-pyrazol-4-yl)-3,4-dihydroquinolin-1(2H)-yl)-3-methyl-3,4-dihydroquinoxalin-2(1H)-one]
- IC50: 102 nM
